Test results from patent publication US20160271063A1, “STERILE S-ADENOSYL METHIONINE WITH A HIGH CONTENT OF ACTIVE ISOMER FOR INJECTABLE SOLUTIONS, AND PROCEDURE FOR OBTAINING IT” (GNOSIS S.P.A., priority 2013, published 2016).

Experiments:
Assay type in all cases: physicochemical
[1] = Residual humidity of the powder; conditions: Test in Mobile Minor unit; IN/OUT temperature differs per test
[2] = S,S isomer content by HPLC (area of active isomer to sum of both isomers)
Procedure: The S-adenosyl methionine of the invention preferably has a water content below 2% by weight and an active enantiomer content exceeding 75% of the total SAMe. The enantiomer content is determined by the percentage of the area of active isomer to the sum of the area of both isomers in the HPLC analysis.

[3] = Particle size (laser particle-size distribution analysis)
[4] = Test in Mobile Minor unit, IN/OUT temperature differs per test

## SAMe sulphate and p-toluenesulphonate [Example 6]
[1]
  Humidity %: 2.07%
[2]
  enantiomeric ratio, S,S isomer: exceeding 80%
[2]; [4]
  S,S Stereoisomer %: 71.16%
[3]
  particle size: less than 50 microns
[3]; [4]
  Particle size D50μ: 8 μ
